Target: hM2 (Homo sapiens, UniProt P08172)
Assay: GloSensor cAMP functional assay, HEK293 cells stably expressing hM2
Type: cell-based
Details: hM2 cell line

Sequences of proteins named here, by UniProt entry; tags and fusion partners are left off.
UniProt P08172, whole entry: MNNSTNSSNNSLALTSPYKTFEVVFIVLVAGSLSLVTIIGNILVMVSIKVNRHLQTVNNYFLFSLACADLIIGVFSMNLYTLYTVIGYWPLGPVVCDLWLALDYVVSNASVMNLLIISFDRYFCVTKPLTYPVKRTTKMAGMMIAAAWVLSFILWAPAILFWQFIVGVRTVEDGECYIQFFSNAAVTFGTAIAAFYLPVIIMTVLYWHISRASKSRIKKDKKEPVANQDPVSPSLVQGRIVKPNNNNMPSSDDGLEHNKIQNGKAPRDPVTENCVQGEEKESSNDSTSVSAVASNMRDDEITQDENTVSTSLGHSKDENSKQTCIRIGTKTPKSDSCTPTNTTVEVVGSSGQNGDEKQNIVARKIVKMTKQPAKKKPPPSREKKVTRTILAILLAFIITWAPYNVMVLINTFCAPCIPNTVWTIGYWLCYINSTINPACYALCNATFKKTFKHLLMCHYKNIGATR

Question: With `CC(=O)OCC[N+](C)(C)C` [ACh, acetylcholine] as the molecule, how does the “ACh EC20” value read?
Answer: The value was 3 nM.
